Measured values as given in patent US5508261, “Analogs of glycoprotein hormones having altered receptor binding specificity and activity and methods for preparing and using same” (University of Medicine & Dentistry of New Jersey, dated 1996).

target: rat luteal ovarian LH receptors (rat, UniProt P16235); assay: inhibition of 125I-hCG binding to rat luteal ovarian LH receptors
Procedure: These values were obtained by dividing the concentration of analog required to inhibit ^125I-hCG binding to rat luteal ovarian LH receptors or ^125I-hFSH binding to bovine testes FSH receptors by 50% into that required for recombinant hCG and recombinant hFSH, respectively. The concentrations of the analogs were determined by sandwich immunoassay using antibodies B105 and A113. The term "N.D." means not determined because concentrations of analog were not employed high enough to detect 50% inhibition. This was because the amounts of hFSH needed to bind to LH Receptors are several orders of magnitude greater than that of hCG and vice versa the amounts of hCG needed to bind to FSH receptors are several orders of magnitude greater than that of hFSH.
An aliquot of the ligation mixture was taken and used to transform DH5-alpha strain E. coli. (obtained from Bethesda Research Laboratories, Gaithersburg, Md.). Plasmid DNAs from ampicillin-resistant DH5-alpha clones were screened by digestion with BglII (which is unique to vectors containing the cassette) and EcoRI (which cuts in the vector). Positive clones were identified by the presence of two fragments (approximately 0.8 Kbp and 2.9 Kbp). The sequence in the coding region of one of these plasmids, which lacked most of the beta-subunit cDNA due to excision of the PvuII fragment, was confirmed by dideoxysequencing as described (10). The remainder of the beta-subunit cDNA (encoding hCGβ amino acids 1–87) was restored by ligation of the 2.3 Kbp PvuI-PvuII fragment of this vector and the 2.9 Kbp PvuI-PvuII fragment from pSVL-hCG-beta'. The ligation mixture was used to transform DH5-alpha strain E. coli. and ampicillin resistant clones were obtained. […] After the DNA was subjected to a dideoxy sequencing procedure to confirm that it encoded "GT" (Table 1), the plasmid DNA was then cotransfected into COS-7 cells (obtained from the American Type Culture Collection) along with pSVL-hCG-alpha, a pSVL-based plasmid encoding the human glycoprotein hormone alpha-subunit (10, 21), using a DEAE-dextran procedure (10). […]

activity relative to hCG (LH RECEPTORS; ratio of concentrations for 50% inhibition) | Binder
0.065 relative to recombinant hCG | Analog "D" (ligand) chain 1: not shown chain 2: SKEPLRPRCRPINATLAVEKEGCPVCITVNITICAGYCPTMTRVLQGVLPALPQVVCNYRDVRFESIRLPGCPRGVNPVVSYAVALSCQCALCDSDSTDCGGPKDHPLTCDDPRFQDSSSSKAPPPSLPSPSRLPGPSDTPILPQ
1 relative to recombinant hCG | recombinant hCG (ligand) chain 1: not shown chain 2: SKEPLRPRCRPINATLAVEKEGCPVCITVNITICAGYCPTMTRVLQGVLPALPQVVCNYRDVRFESIRLPGCPRGVNPVVSYAVALSCQCALCRRSTTDCGGPKDHPLTCDDPRFQDSSSSKAPPPSLPSPSRLPGPSDTPILPQ
0.62 relative to recombinant hCG | Analog "G" (ligand) chain 1: not shown chain 2: SKEPLRPRCRPINATLAVEKEGCPVCITVNITICAGYCPTMTRVLQGVLPALPQVVCNYRDVRFESIRLPGCPRGVNPVVSYAVALSCQCALCRRSTTDCTVRGLGPSYCDDPR

target: bovine testes FSH receptors (bovine, UniProt P35376); assay: inhibition of 125I-hFSH binding to bovine testes FSH receptors
Procedure: The concentrations of the analogs were determined by sandwich immunoassay using antibodies B105 and A113. The term "N.D." means not determined because concentrations of analog were not employed high enough to detect 50% inhibition. This was because the amounts of hFSH needed to bind to LH Receptors are several orders of magnitude greater than that of hCG and vice versa the amounts of hCG needed to bind to FSH receptors are several orders of magnitude greater than that of hFSH.
The ligation mixture was used to transform competent DH5-alpha strain E. coli. (23, 24). Transformed cells were selected by their abilities to grow on agar plates containing amphicillin. Ampicillin resistant colonies were chosen and plasmid minipreparations were made by the boiling lysis method (23, 24). The plasmid DNA was then tested for the presence of HindIII-ApaI endonuclease restriction sites. Plasmid DNA having the desired sequences was cleaved into three fragments (approximately 0.8 Kbp, 1.1 Kbp, and 3.4 Kbp). After the DNA was subjected to a dideoxy sequencing procedure to confirm that it encoded "G" (Table 1), the plasmid DNA was then cotransfected into COS-7 cells (obtained from the American Type Culture Collection) along with pSVL-hCG-alpha, a pSVL-based plasmid encoding the alpha-subunit (10, 21), using a DEAE-dextran procedure (10, 21, 23, 24). Beginning in 1–2 days and for a few days thereafter, the COS-7 cells produced significant amounts of the free subunits and the heterodimer. These were present in the culture media and heterodimer was detected using sandwich immunoassays employing monoclonal antibodies A113 and B105 (10). The protein was concentrated by ultrafiltration and monitored for its abilities to bind to LH and FSH receptors by radioligand receptor assays using ^125I-hCG and ^125I-hFSH as tracers and rat ovarian corpora lutea and bovine testes as sources of LH and FSH receptors as described (10).

activity relative to hFSH (FSH RECEPTORS; ratio of concentrations for 50% inhibition) | Binder
0.29 relative to recombinant hFSH | Analog "G" (ligand) chain 1: not shown chain 2: SKEPLRPRCRPINATLAVEKEGCPVCITVNITICAGYCPTMTRVLQGVLPALPQVVCNYRDVRFESIRLPGCPRGVNPVVSYAVALSCQCALCRRSTTDCTVRGLGPSYCDDPR
0.32 relative to recombinant hFSH | Analog "DG'" (ligand) chain 1: not shown chain 2: SKEPLRPRCRPINATLAVEKEGCPVCITVNITICAGYCPTMTRVLQGVLPALPQVVCNYRDVRFESIRLPGCPRGVNPVVSYAVALSCQCALCDSDSTDCTVRGLGPSYCSFGE
1 relative to recombinant hFSH | recombinant hFSH (ligand) chain 1: not shown chain 2: NSCELTNITIAIEKEECRFCISINITWCAGYCYTRDLVYKDPARPKIQKTCTFKELVYETVRVPGCAHHADSLYTYPVALQCHCGKCDSDSTDCTVRGLGPSYCSFGEMKE
